# Legend:
# bone marrow cells = assay: Cytokine applied in place of the TLR agonist, formation of M-MDSCs and dendritic cells; format: cell-based; details: 3 method, day 6
# Method: In order to identify association of TLR stimulation-induced cytokines with formation of M-MDSCs and inhibition of secondary differentiation as identified in Example 10, the 3 method in Example 1 was performed, except that TNF-α, IL-6, PGE2, IFN-α, or IFN-β is applied in place of the TLR agonist. On day 6 of culture, it was identified whether M-MDSCs and dendritic cells are formed.
# Additionally, in order to identify whether formation of PDCA-1^+ M-MDSCs, which had been induced in a case of being treated with a TLR9 agonist, was caused by such a cytokine, distribution of CD11c^−CD11b^+Ly6G^−Ly6C^+PDCA-1^+ and CD11c^−CD11b^+Ly6G^−Ly6C^+PDCA-1^− was checked for the cells obtained on day 6 of culture as described above.
# Ly6C^+ M-MDSCs = assay: Ly6C+ M-MDSCs treated with GM-CSF, proportions of CD11c+ cells; format: cell-based
# Method: The 3 method in Example 1 was performed, except that a TLR2 agonist, a TLR9 agonist, or IFN-β is applied, and then only Ly6C^+ M-MDSCs are collected on day 6 of culture. Then, GM-CSF was applied in the same manner as in Example 8 and culture was performed for 3 days. Subsequently, proportions of CD11c^+ cells were checked for the respective treatments.
# Additionally, a TLR2 agonist was applied using the 3 method in Example 1, with IFN-β being further applied in an amount of 5 ng/ml or 25 ng/ml. Then, on day 6 of culture, only Ly6C^+ M-MDSCs were collected. Subsequently, GM-CSF was applied in the same manner as in Example 8 and culture was performed for 3 days. Then, proportions of CD11c^+ cells were checked for the respective treatments.
molecule,measurement,setting,value
"IFN-β: type I IFN (protein, UniProt P01574 22-187, looked up) Interferon beta: MSYNLLGFLQRSSNFQCQKLLWQLNGRLEYCLKDRMNFDIPEEIKQLQQFQKEDAALTIYEMLQNIFAIFRQDSSSTGWNETIVENLLANVYHQINHLKTVLEEKLEKEDFTRGKLMSSLHLKRYYGRILHYLKAKEYSHCAWTIVRVEILRNFYFINRLTGYLRN",M-MDSCs are formed and differentiation into dendritic cells is inhibited,bone marrow cells,in a concentration-dependent manner
same,differentiation into dendritic cells (proportions of CD11c^+ cells),"Ly6C^+ M-MDSCs; IFN-β 5 ng/ml or 25 ng/ml in combination with the TLR2 agonist, GM-CSF for 3 days",increased in a concentration-dependent manner
same,differentiation into dendritic cells (proportions of CD11c^+ cells),"Ly6C^+ M-MDSCs; Ly6C^+ M-MDSCs of day 6, GM-CSF for 3 days",induced similarly to a case of being treated with a TLR9 agonist
